Experiment [1] concerns the target T1, APJ receptor (Homo sapiens (Human), UniProt P35414). It is filed as biochemical. As to conditions: read-out: Activity hAPJ SPA EC50 IP. On the procedure: The human APJ receptor was cloned by polymerase chain reaction and the gene encoding the receptor was subcloned in pFLAG-CMV™-3 expression vector (Sigma, Saint Louis, Mo. USA) in-house at Amgen. A GTPγS binding assay was performed on membranes prepared from CHO cells stably expressing human APJ receptor. The optimum experimental conditions for the concentrations of GDP, MgCl2, and NaCl in the assay buffer were initially determined. The assay was performed in assay buffer [20 mM HEPES, pH 7.5, 5 mM MgCl2, and 0.1% (w/v) BSA with 200 mM NaCl, 3 μM GDP] and membranes expressing human APJ receptor/well along with WGA PS beads. The reaction was initiated by addition of 0.2 nM [^35S]GTPγS (Perkin Elmer Life and Analytical Sciences, Waltham USA) in the absence or presence of various ligands and incubated at RT for 90 min. […] All the results presented are means of several independent experiments and analyzed by non-linear regression methods using commercially available program Prism (GraphPad, San Diego, Calif.) to obtain EC50 detailed in Table 58.

Experiment [2] deals with T1, APJ receptor. As to conditions: higher affinity than apelin-36; Kawamata et al., Hosoya et al.; cited from earlier work.
Experiment [3] deals with human APJ-AT1R (angiotensin Type 1) double stable CHO cell line (Homo sapiens (Human), UniProt P30556+P35414). As to conditions: different concentrations of AngII with fixed concentration of pyr apelin-13; human APJ-AT1R double stable CHO cells. On the procedure:
(§1) The function of the inositol phosphate accumulation (IP1) was measured by Time-resolved fluorescence resonance energy (TR-FRET) at 620 nm and 665 nm respectively.

In experiment [4] the target is human APJ receptor expressed in the CHO cell line (Homo sapiens (Human), UniProt P35414). As to conditions: different concentrations of AngII with fixed concentration of pyr apelin-13; human APJ receptor expressed alone in CHO cells. On the procedure:
as §1

For the next experiment, the system named is heart failure rat model. The experiment can be described thus: Cardiac contractility in vivo in heart failure rat model (MI rat model). As to conditions: acute administration for 30 min. The procedure: Male Lewis rats (Charles River, USA) at 2-3 months of age were used for the study. […] APJ agonists were administered dose dependently acutely for a period of 30 min.

In experiment [5] the test system is isolated perfused rat hearts. The experiment can be described thus: Load independent inotropic effects, ex vivo assay (isolated perfused rat hearts, Langendorff). As to conditions: percent change over vehicle. From the text: Evidence for Load Independent Inotropic Effects with APJ Agonists using Ex Vivo Assay (Isolated Perfused Rat Hearts)
Naive Sprague Dawley® SD rats (Harlan laboratories (Livermore, Calif. USA)) were anesthetized and hearts were excised followed by cannulation in the Langendorff apparatus (Harvard apparatus, Holliston, Mass. USA) via aorta. […] The pressure of the solution causes the aortic valve to shut and the perfusate is then forced into the ostium and the coronary vessels. This allows the heart to beat for several h. A balloon was inserted into the left ventricle (LV) to measure dP/dtmax (derivative of left ventricular pressure) as an index of cardiac contractility. The APJ agonist was perfused constantly in a dose dependent manner into the heart to examine cardiac contractility.

On to `COc1cccc(OC)c1-n1c(NS(=O)(=O)[C@H](C)[C@@H](C)c2ncc(C)cn2)nnc1-c1cncc(C)c1` [Example 238.0, (2R,3S)—N-(4-(2,6-dimethoxyphenyl)-5-(5-methylpyridin-3-yl)-4H-1,2,4-triazol-3-yl)-3-(5-methylpyrimidin-2-yl)butane-2-sulfonamide], for which the EC50 at APJ receptor [1] amounted to 12 nM.

As for Apelin-13, on APJ receptor [2], the “in vitro affinity to the APJ receptor relative to apelin-36” value is given as ~3.5 fold.

As to “pyroglutamated apelin-13 [pyr apelin-13]”, in experiment [3], the “positive cooperativity on the AT1R (IP1 accumulation)” value was “induces the positive cooperativity on the AT1R”. Besides, the “positive cooperativity (IP1 accumulation)” value in experiment [4] is on record as “no positive cooperativity observed”.

`COc1cccc(OC)c1-n1c(NS(=O)(=O)[C@@H](C)[C@H](C)c2cnc(C)cn2)nnc1-c1cncc(C)c1` [Example 506.0, (2S,3R)—N-(4-(2,6-dimethoxyphenyl)-5-(5-methyl-3-pyridinyl)-4H-1,2,4-triazol-3-yl)-3-(5-methyl-2-pyrazinyl)-2-butanesulfonamide]: on APJ receptor [1], the EC50 came out at 1.2 nM.

Consider `COc1cccc(OC)c1-n1c(NS(=O)(=O)[C@@H](C)[C@H](C)c2ncc(C)cn2)nnc1-c1cncc(C)c1` [Example 263.0, (2S,3R)—N-(4-(2,6-dimethoxyphenyl)-5-(5-methylpyridin-3-yl)-4H-1,2,4-triazol-3-yl)-3-(5-methylpyrimidin-2-yl)butane-2-sulfonamide], for which the EC50 on APJ receptor [1] was 0.32 nM. In addition, the “MI Rat Model dP/dtmax (%)” value in the experiment with heart failure rat model turned out to be 25%. In experiment [5], the “Isolated Heart Assay dP/dtmax (%)” value was 29% and the “Isolated Heart Assay dP/dtmin (%)” value was 32%.

In the case of `COc1cccc(OC)c1-n1c(NS(=O)(=O)[C@@H](C)[C@H](OC)c2ncc(C)cn2)nnc1-c1cccnc1` [Example 173.0, (1R,2S)-N-(4-(2,6-dimethoxyphenyl)-5-(pyridin-3-yl)-4H-1,2,4-triazol-3-yl)-1-methoxy-1-(5-methylpyrimidin-2-yl)propane-2-sulfonamide], at APJ receptor [1], the EC50 was found to be 1.2 nM.

Regarding `COc1cccc(OC)c1-n1c(NS(=O)(=O)[C@H](C)[C@@H](C)c2cnc(C)cn2)nnc1-c1cncc(C)c1` [Example 199.0, (2R,3S)-N-(4-(2,6-dimethoxyphenyl)-5-(5-methylpyridin-3-yl)-4H-1,2,4-triazol-3-yl)-3-(5-methylpyrazin-2-yl)butane-2-sulfonamide], the half-maximal effective concentration (EC50) at APJ receptor [1] is 19 nM.

`COc1c(Br)cc(Br)c(OC)c1-n1c(NS(=O)(=O)[C@@H](C)[C@H](C)c2ncc(C)cn2)nnc1-c1cncc(C)c1` [Example 732.0, (2S,3R)—N-(4-(3,5-dibromo-2,6-dimethoxyphenyl)-5-(5-methylpyridin-3-yl)-4H-1,2,4-triazol-3-yl)-3-(5-methylpyrimidin-2-yl)butane-2-sulfonamide]: at APJ receptor [1], the EC50 was 37 nM.

As for `COc1cccc(OC)c1-n1c(NS(=O)(=O)[C@@H](C)[C@H](C)c2ncc(C)cn2)nnc1-c1cncc(CO)c1` [Example 846.0, (2S,3R)-N-(4-(2,6-dimethoxyphenyl)-5-(5-(hydroxymethyl)-3-pyridinyl)-4H-1,2,4-triazol-3-yl)-3-(5-methyl-2-pyrimidinyl)-2-butanesulfonamide], the EC50 at APJ receptor [1] turned out to be 6.6 nM.

Usually EC50 stands for the concentration giving half of the maximal effect.

These data come from patent publication US10058550B2, “Methods of treating heart failure” (priority 2015, dated 2018).
